Data reported in US11291705B2, “Use of caspase-3 inhibitors and caspase-3 activators in the manufacture of medicament for treating cancer and wound healing” (Technion Research & Development Foundation Limited, priority 2016, dated 2022).

Molecular target: T1, recombinant human cleaved Caspase-3 (Homo sapiens, UniProt P42574)
T1 construct: Recombinant human cleaved Caspase-3 was incubated with α-Catenin for 2 hours; purchased BD Bioscience
T1 sequence (P42574 29-175 limits assumed): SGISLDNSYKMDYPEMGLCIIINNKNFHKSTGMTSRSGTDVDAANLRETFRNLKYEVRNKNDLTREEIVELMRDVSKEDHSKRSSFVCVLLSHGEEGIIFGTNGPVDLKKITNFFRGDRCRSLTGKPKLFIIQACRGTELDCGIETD
T1 sequence (P42574 176-277 limits assumed): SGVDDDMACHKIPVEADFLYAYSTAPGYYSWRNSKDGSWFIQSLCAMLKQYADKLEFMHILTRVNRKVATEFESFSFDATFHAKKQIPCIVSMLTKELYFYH
Assay: In vitro cleavage assay of recombinant human α-Catenin by caspase-3
Assay type: biochemical
Conditions: Caspase-3 incubated with α-Catenin for 2 hours, Ac-DEVD-CHO 1 μg; Coomassie
Protocol: In Vitro Cleavage Assay—Recombinant human α-Catenin protein (2.5 μg; Abcam) and recombinant active-caspase 3 (100 ng; BD Bioscience) were incubated at 37° C. for 2 h in cleavage assay buffer (20 mM PIPES, 100 mM NaCl, 10 mM DTT, 1 mM EDTA, 0.1% (w/v) CHAPS, 10% sucrose, pH 7.2) containing either DMSO or Ac-DEVD-CHO (SEQ ID NO: 75. 1 μg; BD Bioscience) as indicated. Reactions were stopped by addition of Laemmli sample buffer, and subjected to SDS/PAGE.
In order to examine if Caspase-3 cleaves α-Catenin, the present inventors conducted an in vitro cleavage assay. Recombinant human cleaved Caspase-3 was incubated with α-Catenin for 2 hours and products were separated using SDS-electrophoresis and Coommasie staining.

Ac-DEVD-CHO
α-Catenin cleavage products: no cleavage products
